From PMC5746119, “Pharmacologic characterization of SHR8443, a novel dual inhibitor of phosphatidylinositol 3-kinase and mammalian target of rapamycin” (Oncotarget, 2017)

Tested on: trastuzumab-resistant BT-474/trastuzumab xenografts
Assay: Tumor xenograft growth inhibition
Type: in vivo, Balb/cA-nude mice
Details: 5 mg/kg intravenously twice a week
Method: Female, 5–6-wk-old Balb/cA-nude mice were purchased from Shanghai Laboratory Animal Center, Chinese Academy of Sciences (Shanghai, China). […] Tumor volume was calculated as (length × width^2)/2.

For “trastuzumab: anti-HER2 antibody, purchased from Roche”, the “tumor growth inhibition (TGI)” value was 25%.
